12 compounds from patent US8563000B2, “Melanocortin receptor ligands modified with hydantoin” (Ipsen Pharma S.A.S., priority 2007, dated 2013) can be followed below.

The chains behind the UniProt entries cited, without tags or fusion partners. Where a name states a change or a piece, a line headed by the entry shows the natural chain unless it says otherwise.
UniProt P33032: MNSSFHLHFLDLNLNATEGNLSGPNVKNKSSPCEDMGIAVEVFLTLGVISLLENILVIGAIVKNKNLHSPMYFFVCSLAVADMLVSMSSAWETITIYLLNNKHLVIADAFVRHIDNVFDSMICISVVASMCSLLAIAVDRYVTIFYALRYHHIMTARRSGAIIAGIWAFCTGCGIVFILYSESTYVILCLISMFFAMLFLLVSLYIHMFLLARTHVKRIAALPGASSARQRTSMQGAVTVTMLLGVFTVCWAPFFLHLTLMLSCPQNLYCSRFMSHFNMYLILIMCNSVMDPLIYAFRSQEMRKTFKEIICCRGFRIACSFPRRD
UniProt P41968: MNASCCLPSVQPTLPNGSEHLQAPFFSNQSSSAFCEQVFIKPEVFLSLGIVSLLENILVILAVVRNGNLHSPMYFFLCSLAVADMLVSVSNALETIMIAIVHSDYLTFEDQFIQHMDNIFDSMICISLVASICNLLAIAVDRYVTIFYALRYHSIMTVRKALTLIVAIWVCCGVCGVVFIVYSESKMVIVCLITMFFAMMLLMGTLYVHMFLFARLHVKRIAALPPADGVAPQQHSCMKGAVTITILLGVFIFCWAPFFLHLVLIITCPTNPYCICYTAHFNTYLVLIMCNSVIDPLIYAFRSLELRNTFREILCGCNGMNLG
UniProt Q01726: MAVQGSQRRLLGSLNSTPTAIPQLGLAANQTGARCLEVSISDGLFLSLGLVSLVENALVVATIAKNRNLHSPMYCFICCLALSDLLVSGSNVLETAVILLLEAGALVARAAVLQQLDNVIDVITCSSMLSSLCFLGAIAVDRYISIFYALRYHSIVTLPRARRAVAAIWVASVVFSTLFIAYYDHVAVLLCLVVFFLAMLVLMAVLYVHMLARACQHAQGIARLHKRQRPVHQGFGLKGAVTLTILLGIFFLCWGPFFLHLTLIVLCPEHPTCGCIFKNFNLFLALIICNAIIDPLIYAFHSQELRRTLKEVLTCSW
UniProt P32245, whole entry: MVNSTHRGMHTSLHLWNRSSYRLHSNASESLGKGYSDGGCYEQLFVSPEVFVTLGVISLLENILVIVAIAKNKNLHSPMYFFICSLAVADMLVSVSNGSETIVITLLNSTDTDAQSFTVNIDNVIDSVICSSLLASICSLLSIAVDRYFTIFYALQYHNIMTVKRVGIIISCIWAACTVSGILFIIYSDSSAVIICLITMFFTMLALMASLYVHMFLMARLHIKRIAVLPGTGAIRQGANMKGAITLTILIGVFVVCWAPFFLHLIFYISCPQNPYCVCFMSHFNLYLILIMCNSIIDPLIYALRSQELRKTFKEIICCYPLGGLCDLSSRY

Read-outs that look alike come from different tables or passages of the source. Bounds are passed on as bounds.

Test [1] concerns the target T1, hMC5 (Homo sapiens, UniProt P33032).
T1 construct: expressed in transfected cells; host or cells: CHO-K1
Briefly: Radioligand binding assay, [125I]-NDP-α-MSH, CHO-K1 membranes. How it is done:
(§1) Cellular membranes used for the in vitro receptor binding assays were obtained from transgenic CHO-K1 cells stably expressing hMC-R receptor subtypes 1, 3, 4 or 5. […] The pellets were re-suspended in the same buffer and centrifuged at 50,000 g for 10 minutes at approximately 4° C. The washed pellets containing the cellular membranes were stored at approximately −80° C.
(§2) Filters were washed three times with 50 mM Tris-HCl at pH 7.4 at a temperature of approximately 0-4° C. and then assayed for radioactivity using a Packard Topcount® scintillation counter. Binding data were analyzed by computer-assisted non-linear regression analysis (XL fit; IDBS).

Test [2] deals with T2, hMC3 (Homo sapiens, UniProt P41968).
T2 construct: expressed in transfected cells; host or cells: CHO-K1
Described as above. How it is done: as §1, §2

For test [3], the target named is T1, hMC5. Briefly: Cyclic AMP bioassay (ECL), CHO-K1 cells expressing hMC5. It counts as cell-based. The settings on record: intracellular cAMP.
Test [4] concerns the target T3, hMC1 (Homo sapiens, UniProt Q01726).
T3 construct: expressed in transfected cells; host or cells: CHO-K1
As to the kind of experiment: Radioligand binding assay, [125I]-NDP-α-MSH, CHO-K1 membranes. How it is done:
as §1, §2

Test [5] deals with T4, hMC4 (Homo sapiens, UniProt P32245).
T4 construct: expressed in transfected cells; host or cells: CHO-K1
The test is described as above. The method, then: as §1, §2

For test [6], the target named is T4, hMC4. As to the kind of experiment: Cyclic AMP bioassay (ECL), CHO-K1 cells expressing hMC4. The format is cell-based. The settings on record: intracellular cAMP.
Setting [7] is: competition with [125I]-NDP-α-MSH.

By Ki is commonly meant the dissociation constant of the complex between target and ligand, obtained from inhibition or displacement. Compound `C[C@@H]1C(=O)N[C@@H](Cc2cnc[nH]2)C(=O)N[C@H](Cc2ccccc2)C(=O)N[C@@H](CCCNC(=N)N)C(=O)N[C@@H](Cc2c[nH]c3ccccc23)C(=O)N[C@H](C(N)=O)CCCNC(=O)CC[C@@H]2NC(=O)N1C2=O` [cyclo[Hydantoin(C(O)-(Glu-D-Ala))-His-D-Phe-Arg-Trp-Orn]-NH2] gave a Ki in test [1] of over 10000 nM.

In test [1], `N=C(N)NCCC[C@@H]1NC(=O)[C@@H](Cc2ccc3ccccc3c2)NC(=O)C2(CCNCC2)N2C(=O)N[C@@H](CC(=O)NCCCC[C@@H](C(N)=O)NC(=O)[C@H](Cc3c[nH]c4ccccc34)NC1=O)C2=O` [cyclo[Hydantoin(C(O)-(Asp-Apc))-D-2-Nal-Arg-Trp-Lys]-NH2] registered a Ki of 1100 nM.

In turn, `C[C@H]1NC(=O)[C@@H](N2C(=O)NC3(CCCCC3)C2=O)CSSC[C@@H](C(N)=O)NC(=O)[C@H](Cc2c[nH]c3ccccc23)NC(=O)[C@H](CCCNC(=N)N)NC(=O)[C@@H](Cc2ccccc2)NC(=O)[C@H](Cc2cnc[nH]2)NC1=O` [cyclo[Hydantoin(C(O)-(A6c-Cys))-D-Ala-His-D-Phe-Arg-Trp-Cys]-NH2] registered a Ki in test [2] of 1760 nM.

`N=C(N)NCCC[C@@H]1NC(=O)[C@@H](Cc2ccc3ccccc3c2)NC(=O)C2(CCCC2)N2C(=O)N[C@@H](CC(=O)NCCCC[C@@H](C(N)=O)NC(=O)[C@H](Cc3c[nH]c4ccccc34)NC1=O)C2=O` [cyclo[Hydantoin(C(O)-(Asp-A5c))-D-2-Nal-Arg-Trp-Lys]-NH2] came in with a Ki in test [1] of 1100 nM.

As a reminder, the EC50 is the concentration needed to bring the measured effect to its halfway point. High values mean a less potent agent, low ones a more potent agent. `C[C@@H]1C(=O)N[C@@H](Cc2cnc[nH]2)C(=O)N[C@H](Cc2ccccc2)C(=O)N[C@@H](CCCNC(=N)N)C(=O)N[C@@H](Cc2c[nH]c3ccccc23)C(=O)N[C@H](C(N)=O)CNC(=O)CC[C@@H]2NC(=O)N1C2=O` [cyclo[Hydantoin(C(O)-(Glu-D-Ala))-His-D-Phe-Arg-Trp-Dap]-NH2] came in with an EC50 in test [3] of over 10000 nM. In addition, the Ki in test [1] is over 10000 nM.

As for `C[C@H]1NC(=O)[C@@H](NC(=O)CN2C(=O)CNC2=O)CSSC(C)(C)[C@@H](C(N)=O)NC(=O)[C@H](Cc2c[nH]c3ccccc23)NC(=O)[C@H](CCCNC(=N)N)NC(=O)[C@@H](Cc2ccccc2)NC(=O)[C@H](Cc2cnc[nH]2)NC1=O` [Hydantoin(C(O)-(Gly-Gly))-cyclo(Cys-D-Ala-His-D-Phe-Arg-Trp-Pen)-NH2], the Ki in test [4] worked out at 127 nM; in test [1], 381 nM; in test [5] it was 10.4 nM; in test [2] it was 811 nM.

With `CCCC[C@@H](C(=O)N[C@H]1CSSC[C@@H](C(N)=O)NC(=O)[C@H](Cc2c[nH]c3ccccc23)NC(=O)[C@H](CCCNC(=N)N)NC(=O)[C@@H](Cc2ccccc2)NC(=O)[C@H](Cc2cnc[nH]2)NC(=O)[C@@H](C)NC1=O)N1C(=O)NC2(CCCCC2)C1=O` [Hydantoin(C(O)-(A6c-Nle))-cyclo(Cys-D-Ala-His-D-Phe-Arg-Trp-Cys)-NH2], the EC50 in test [6] was 1.8 nM. This lies in the single-digit nanomolar range.

In test [1] (setting [7]), `C[C@H]1NC(=O)[C@@H](N2C(=O)NC(C)(C)C2=O)CSSC[C@@H](C(N)=O)NC(=O)[C@H](Cc2c[nH]c3ccccc23)NC(=O)[C@H](CCCNC(=N)N)NC(=O)[C@@H](Cc2ccccc2)NC(=O)[C@H](Cc2cnc[nH]2)NC1=O` [cyclo[Hydantoin(C(O)-(Aib-Cys))-D-Ala-His-D-Phe-Arg-Trp-Cys]-NH2] returned an inhibitory constant (Ki) of over 10000 nM.

In test [1] (setting [7]), `CC(C)[C@@H]1NC(=O)N([C@H]2CSSC[C@@H](C(N)=O)NC(=O)[C@H](Cc3c[nH]c4ccccc34)NC(=O)[C@H](CCCNC(=N)N)NC(=O)[C@@H](Cc3ccccc3)NC(=O)[C@H](Cc3cnc[nH]3)NC(=O)[C@@H](C)NC2=O)C1=O` [cyclo[Hydantoin(C(O)-(Val-Cys))-D-Ala-His-D-Phe-Arg-Trp-Cys]-NH2] displayed a Ki of over 10000 nM.

`C[C@@H]1C(=O)N[C@@H](Cc2cnc[nH]2)C(=O)N[C@H](Cc2ccccc2)C(=O)N[C@@H](CCCNC(=N)N)C(=O)N[C@@H](Cc2c[nH]c3ccccc23)C(=O)N[C@H](C(N)=O)CCCCNC(=O)CC[C@@H]2NC(=O)N1C2=O` [cyclo[Hydantoin(C(O)-(Glu-D-Ala))-His-D-Phe-Arg-Trp-Lys]-NH2]: in test [1], the Ki was over 10000 nM.

Take `CC(C)C[C@@H]1NC(=O)N([C@H]2CSSC[C@@H](C(N)=O)NC(=O)[C@H](Cc3c[nH]c4ccccc34)NC(=O)[C@H](CCCNC(=N)N)NC(=O)[C@@H](Cc3ccccc3)NC(=O)[C@H](Cc3cnc[nH]3)NC(=O)[C@@H](C)NC2=O)C1=O` [cyclo[Hydantoin(C(O)-(Leu-Cys))-D-Ala-His-D-Phe-Arg-Trp-Cys]-NH2]: the Ki in test [1] (setting [7]) is over 10000 nM.

Regarding `C[C@@H]1C(=O)N[C@@H](Cc2cnc[nH]2)C(=O)N[C@H](Cc2ccccc2)C(=O)N[C@@H](CCCNC(=N)N)C(=O)N[C@@H](Cc2c[nH]c3ccccc23)C(=O)N[C@H](C(N)=O)CSSC[C@@H]2NC(=O)N1C2=O` [cyclo[Hydantoin(C(O)-(Cys-D-Ala))-His-D-Phe-Arg-Trp-Cys]-NH2], the Ki in test [4] was 230 nM; in test [1], 7020 nM; in test [5], 126 nM; in test [2], 7590 nM.
